# The list is not random: actives were taken first. Their share in the collection is about 1.5%.
# UUG fidelity: yeast start codon fidelity modulation; AID 602363; activity score, % at 18.7 µM; S. cerevisiae UUG-firefly luciferase reporter, luminescence/redox ratio; 0.13% of 350,000 active;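 active means replicate mean at a twofold rise or more, about +100% in these data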;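 further: firefly luciferase made from a UUG start codon reports start codon fidelity; reporter light over untreated wells divided by growth signal over untreated wells; some hits fall short of that in this replicate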
# miR-122 sensor: miR-122 inhibition in Huh7 cells | Huh7 miR-122 Renilla luciferase sensor, 48 h; neutral wells = 0, positive control = 100 | activation (reporter increase), % at 12.5 µM | actives 0.3% (n = 340,000) | AID 602342;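 active means mean replicate activation score at least 90 and every replicate individually at or above 90; inconclusive means only one of the two criteria met; inactive means neither criterion met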;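 further: higher luciferase means less miR-122 activity so hits act as miR-122 inhibitors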
# Cneo AK release: Cryptococcus neoformans lysis via adenylate kinase release | C. neoformans lysis, adenylate kinase release luminescence, 4 h; normalised: neutral wells 0, clomiphene wells 100 | lysis activity, % at 15 µM | actives 0.2% (n = 360,000) | AID 651654;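 active means mean lysis activity across replicates of at least 80%, whatever share of replicates individually reach that level; inactive means mean lysis activity below 80%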
#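 Material – Cryptococcus neoformans yeast cells · Quantity – 5 × 10^6 yeast cells/mL · Buffer or medium – YPD medium · Compound – single dose · Timing – 4 h static compound exposure, 37 °C, read 1 h post-reagent · Signal – adenylate kinase release luminescence · Read-out basis – lysis from increased AK signal · Benchmarks – Clomiphene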
# Env fusion inh: HIV envelope-mediated fusion inhibition. HeLa-JRFL Env/CEM21 cell fusion, luciferase. inhibition, % at 12.3 µM. actives 1.1% (n = 360,000). AID 651610;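 active means mean replicate inhibition score of at least 50 and every replicate individually at or above 50; inconclusive means only one of the two criteria met; inactive means mean below 50 and not all replicates reaching 50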
# FN deposit inh: fibronectin deposition inhibition; AID 743247; actives 0.086% (n = 350,000); inhibition, % at 12.6 µM; AH1F fibroblasts, Alexa488-fibronectin deposition fluorescence, overnight;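 active means mean inhibition across replicates of 30% or more, regardless of how many single replicates reach that level; inconclusive means mean under 30% yet at least half of replicates reach 30%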
#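 Material: AH1F fibroblast monolayer depositing Alexa488-labelled fibronectin into matrix | Input: 10000 AH1F cells/well | Medium: DMEM plus 2% serum, read in PBS | Reagent: Alexa488-fibronectin, 24 nM final in well | Compound dosing: One dose per compound, pinned | Schedule: 1 h adhesion, overnight exposure | Measured by: Fluorescence at 485 nm excitation, 525 nm emission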
# PGC1a acetyl inh: modulators of PGC1a acetylation; inhibition, % at 15.6 µM; U2OS PGC1a acetylation, AlphaScreen anti-acetyl-lysine; with virally co-expressed GCN5 acetyltransferase; actives 0.17% (n = 350,000);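 active means every replicate shows inhibition of at least 40%; inconclusive means mean inhibition at least 40% but some replicate below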
# miR-27b select: miR-27b effect in Huh7 as miR-122 inhibitor selectivity check; relative miR-27b level (unnormalised ratio), ratio at 35 µM; shares compounds with miR-122 sensor; 35 tested, under 10 active; Huh7 miR-27b levels, qRT-PCR, 48 h;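 active means compounds lowering miR-27b whose fitted half-maximal dose is at most twice their top tested dose; inconclusive means flat curve with moderate drop, or poor fit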
# A number is an active result; i = inactive; ? = inconclusive; nt = not tested or not shown; [ ] = remark or other dose.
SMILES,UUG fidelity,miR-122 sensor,Cneo AK release,Env fusion inh,FN deposit inh,PGC1a acetyl inh,miR-27b select
COCCN(C(=S)Nc1cccc(C)c1)C(C)c1cccs1 (stereo not given),nt,nt,nt,i,i,nt,nt
CC(=O)Nc1ccc2c(c1)C(N1CC3CCC(CC3)C1)c1ccccc1-2 (stereo not given),i,i,i,67,i,i,nt
CCCOc1ccc(/C=C/C(=O)Nc2ccc([N+](=O)[O-])cc2)cc1,i,i,i,68,i,nt,nt
CCN(CC)c1ccc(NC(=O)COC(=O)C2CCN(c3ccc(C(F)(F)F)cn3)CC2)cc1,nt,nt,nt,nt,i,nt,nt
CO[C@H]1CN(C)C(=O)c2cc(NC(=O)Nc3c(C)noc3C)ccc2OC[C@@H](C)N(CC2CC2)C[C@@H]1C,i,nt,i,nt,i,i,nt
CC1=C(C(=O)NC(C)C)C2(CCC(C)CC2)OC1=O (stereo not given),i,nt,i,61,i,nt,nt
N#Cc1c(NC(=O)c2ccco2)sc2c1CCC2,i,i,i,i,nt,nt,nt
C[C@@H]1CN([C@H](C)CO)C(=O)c2cccc(NC(=O)c3ccncc3)c2O[C@@H]1CN(C)Cc1ccc(-c2ccccc2)cc1,i,i,101,nt,i,i,nt
C[C@H]1CN([C@@H](C)CO)C(=O)c2cccc(NC(=O)c3ccncc3)c2O[C@@H]1CN(C)Cc1ccc(C(F)(F)F)cc1,i,108[16.7 µM],i,i,i,i,nt
C[C@@H]1CN([C@@H](C)CO)C(=O)c2cccc(NC(=O)c3ccncc3)c2O[C@@H]1CN(C)Cc1ccc(-c2ccccc2)cc1,i,i,i,i,i,i,nt
Cc1cc(C(=O)Nc2cccc3c2O[C@H](CN(C)Cc2ccc(C(F)(F)F)cc2)[C@@H](C)CN([C@H](C)CO)C3=O)n(C)n1,i,276[16.7 µM],i,i,nt,i,nt
Cc1cc(C(=O)Nc2cccc3c2O[C@H](CN(C)Cc2ccc(C(F)(F)F)cc2)[C@H](C)CN([C@@H](C)CO)C3=O)n(C)n1,i,i,i,i,nt,i,nt
COC(=O)c1c(C)[nH]c(C)c1-c1ccccc1,i,i,i,nt,nt,i,nt
CCOC(=O)C(NC(=O)c1ccc(F)cc1)(Nc1nnc(C)s1)C(F)(F)F (stereo not given),i,i,i,nt,nt,i,nt
C=CCn1c(C(C)NC(=O)C(C)(C)C)nc2ccccc21 (stereo not given),i,i,i,i,i,i,nt
CC(C)NC(=O)N(C)C[C@@H]1Oc2c(NC(=O)Nc3ccc(F)cc3)cccc2C(=O)N([C@@H](C)CO)C[C@H]1C,i,i,i,nt,i,i,nt
COc1ccccc1CN(C)C[C@@H]1OCc2cnnn2CCCC(=O)N([C@@H](C)CO)C[C@@H]1C,i,i,i,i,i,i,nt
O=C1C=C(c2c(O)ccc3ccccc23)c2ccccc2C1=O,nt,i,nt,i,i,54,nt
O=C1C=C(O)c2cccc(O)c2C1=O,i,i,i,nt,nt,i,nt
Cc1cccc(COCC(CC(C)C)N2CCN(C(=O)c3ccc(C(C)(C)C)cc3)CCC2=O)c1 (stereo not given),i,i,i,60,i,i,nt
Cc1cccc(COCC(CC(C)C)N2CCN(C(=O)c3ccc(C(F)(F)F)cc3)CCC2=O)c1 (stereo not given),i,i,i,83,i,i,nt
CC(C)(C)c1cc(C(=O)NNC(=O)Nc2ccccc2)n(Cc2ccccc2)n1,nt,nt,nt,i,i,i,nt
COc1ccc(S(=O)(=O)NCCN2CCOCC2)c2ccccc12,i,?,i,nt,nt,i,i
Cc1cc(C)c(S(=O)(=O)NC(C)C)c(C)c1-n1cnnn1,i,91,i,i,i,i,i
Cc1cc(C)c(S(=O)(=O)NCCOc2ccccc2)c(C)c1-n1cnnn1,i,i,i,i,nt,i,nt
SMILES,UUG fidelity,miR-122 sensor,Cneo AK release,Env fusion inh,FN deposit inh,PGC1a acetyl inh,miR-27b select
C=CCn1c(Cc2ccc(OC(C)C)c(Cl)c2)nnc1SCC(N)=O,i,i,i,nt,nt,i,nt
COC(=O)c1cc(S(=O)(=O)Nc2cc(OC)cc(OC)c2)cn1C,i,153,i,i,i,i,i
Cc1cc(S(=O)(=O)NC2CCCCC2)c(C)s1,i,260,nt,i,i,i,i
COc1cc(S(=O)(=O)NC2CCCC2)c(OC)cc1C,i,?,i,i,i,i,nt
Cc1noc(C)c1S(=O)(=O)Nc1ccc2c(c1)C(=O)N([C@@H](C)CO)C[C@@H](C)[C@@H](CN(C)S(=O)(=O)c1cccs1)O2,i,i,i,i,nt,i,nt
COc1ccc(C(C)(C)C)cc1S(=O)(=O)NCC1CCCO1 (stereo not given),i,170,i,i,i,i,i
O=[N+]([O-])c1ccc(C2(O)CN(c3ccccc3)C3=[N+]2CCS3)cc1 (stereo not given),i,i,i,i,i,i,nt
C[C@@H]1CCCCO[C@H](CN(C)S(=O)(=O)c2ccccc2)[C@@H](C)CN([C@@H](C)CO)C(=O)c2cc(N(C)C)ccc2O1,i,i,i,i,nt,i,nt
O=S(=O)(c1ccc2c(c1)CCCN2)N1CCC[C@@H]2CCCC[C@H]21,nt,nt,nt,nt,nt,nt,i
O=S(=O)(c1ccc2c(c1)CCN2)N1CCOCC1,i,nt,i,nt,i,nt,nt
Cc1ccc(C(=O)C2Oc3ccccc3C3CC(c4ccc(C)cc4)=NN23)cc1 (stereo not given),i,152,i,i,i,i,i
O=C(C1CCCN(S(=O)(=O)c2ccc(Cl)cc2)C1)N1CCCC1 (stereo not given),i,nt,i,i,i,nt,nt
O=C(Nc1ccc2ccccc2c1)c1ccc(Cl)cc1Cl,i,nt,i,i,i,nt,i
O=C(Nc1ccc2ccccc2c1)c1ccccc1Cl,i,i,i,i,i,i,nt
COc1ccc(S(=O)(=O)Nc2ccc(OC(F)F)cc2)c2cccnc12,nt,nt,nt,nt,nt,nt,i
COc1ccc(S(=O)(=O)Nc2cccc(C)c2C)c2cccnc12,i,nt,i,i,i,nt,nt
Cc1ccc(C)c(S(=O)(=O)Nc2ccc(O)cc2)c1,i,i,i,i,i,i,nt
Cc1ccc(C)c(S(=O)(=O)Nc2ccc(-n3cnnn3)cc2)c1,i,183,i,nt,nt,i,i
N#C/C(=C\c1cccc(Cl)c1)C(=O)c1ccccc1,i,i,i,i,i,nt,nt
CO[C@@H]1CN(C)C(=O)c2ccc(NC(=O)c3ccno3)cc2OC[C@H](C)NC[C@@H]1C,nt,nt,i,i,i,i,nt
S=C(Nc1ccc(Cl)cc1Cl)NC1CCCCC1,i,133,i,nt,nt,i,i
CCN(CC)C(=O)CN(c1cc2c(cc1OC)oc1ccccc12)S(=O)(=O)c1ccccc1,i,100,i,nt,nt,i,i
Cc1ccc(C(C)C)cc1S(=O)(=O)Nc1cccnc1,i,380,i,i,i,i,i
